Test results published in patent publication US12460050B2, “Nitric oxide-releasing hyperbranched compounds as antibacterial scaffolds and methods pertaining thereto” (The University of North Carolina at Chapel Hill, priority 2017, dated 2025).

Tested on: L929 mouse fibroblasts

Question: “Hyperbranched poly(methylene bisacrylamide-hydroxyethyl ethylenediamine) [HBPMH]” was tested. Which “toxicity to L929 mouse fibroblast cells in vitro (in words)” value did it give?
Answer: non-toxic
